Results from US20200197498A1.

Target: Nivolumab
Assay: SPR (Biacore T200), Nivolumab immobilised on CM5 chip, 1 µM peptide injected

Substance	SPR response [RU]
MVF-PD-1 (32-50) (peptide)	20
MVF-PD-1 (73-90) (peptide)	1000
MVF-PD-1 (92-110) (peptide)	970
